# Experimental data taken from patent US7642274B2, “Inhibitor of pain threshold decrease” (Santen Pharmaceutical Co., Ltd., priority 2003, dated 2010).
# Tested on: repetitive cold stress rat models
# Experiment: Test for inhibition of pain threshold decrease by repetitive cold stress (continuous administration), Randall-Selitto method
# Assay type: in vivo
# Details: day 8 after applying the repetitive cold stress; subcutaneously 3 mg/kg once a day; with stress; average of 5 or 6 cases
row,Compound,Rate of inhibition of pain threshold decrease (%)
1,CN(C(=O)Cc1ccc(Cl)c(Cl)c1)C1CCC2(CCCO2)CC1N1CCCC1 (relative stereo),40.4%
2,CN(C(=O)Cc1ccc(Cl)c(Cl)c1)[C@@H]1CCCC[C@H]1N1CCCC1.CS(=O)(=O)O (relative stereo),59.6%
